Measured values reported in ChEMBL document CHEMBL1149301, “Benzoyl ring halogenated classical 2-amino-6-methyl-3,4-dihydro-4-oxo-5-substituted thiobenzoyl-7H-pyrrolo[2,3-d]pyrimidine antifolates as inhibitors of thymidylate synthase and as antitumor agents” (J Med Chem, 2004).

Amino acid sequences for entries named in this document (tags omitted).
UniProt C3SWJ7, whole entry: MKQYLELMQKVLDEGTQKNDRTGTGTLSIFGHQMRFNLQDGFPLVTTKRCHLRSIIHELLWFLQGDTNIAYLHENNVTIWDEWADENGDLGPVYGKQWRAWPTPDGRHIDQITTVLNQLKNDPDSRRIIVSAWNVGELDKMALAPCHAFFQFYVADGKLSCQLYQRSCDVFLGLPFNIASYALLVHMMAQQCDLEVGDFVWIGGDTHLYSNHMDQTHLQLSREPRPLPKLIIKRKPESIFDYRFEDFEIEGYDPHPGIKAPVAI

Target: Thymidylate synthase (Escherichia coli, UniProt C3SWJ7)
Test: Inhibition of Escherichia coli thymidylate synthase

IC50: 5.7 µM
SMILES: Cc1nc2ccc(CN(C)c3ccc(C(=O)N[C@@H](CCC(=O)O)C(=O)O)s3)cc2c(=O)[nH]1 [RALTITREXED]
